One molecule from paper PMC10295947 (Biomolecules, 2023) can be followed below.

The test system of the test is C57BL/6J mice. The following applies: SR-17018 24 mg/kg i.p. 30 or 60 min after morphine; naloxone 2.5 mg/kg i.p. after 60 min.

Consider `C=CCN1CC[C@]23c4c5ccc(O)c4O[C@H]2C(=O)CC[C@@]3(O)[C@H]1C5`, for which the “Reversal of morphine-induced locomotor activity (given after morphine)” value is “fully antagonized morphine-induced locomotor activity”.
